Values of other authors as cited in patent US20210393618A1, “BUPRENORPHINE TO TREAT RESPIRATORY DEPRESSION” (published 2021).
Only a part of the results on these compounds is given; other tests are left out.

Details: in vivo

## CCC(=O)N(c1ccccc1)C1CCN(CCc2ccccc2)CC1
  unchanged drug excreted in the urine: less than 10%
